Values of other authors in US20060135612A1, “Method of ameliorating or abrogating the effects of a neurodegenerative disorder, such as amyotrophic lateral sclerosis (ALS), by using a HDAC inhibiting agent” (U.S. Department of Veterans Affairs, priority 2004, published 2006).

Test system: humans with ALS
Settings: ALS patients, References 2 and 3; cited from earlier work

For `Nc1nc2ccc(OC(F)(F)F)cc2s1` [riluzole], the prolongation of survival is listed as 2-3 month.
